This is an account of results in patent US20260028336A1 (Arcus Biosciences, Inc., priority 2022, published 2026).

The subject of this assay is Jurkat cells. The assay is described as follows: IL-2 secretion assay in CD3/CD28-activated Jurkat cells (AlphaLISA). In kind it is cell-based. Particulars: Homo sapiens, 24 h, read-out: IL-2 Secretion (EC50). The procedure: Certain compounds were also evaluated in an IL-2 secretion assay. On the day of the assay, a 16 point, 1:2 master serial dilution of each compound was prepared in Opti-MEM to span a final concentration range of 10 μM to 300 pM. Assays were set up in CORNING® tissue culture-treated 384-well microplates containing 60 nL of each dilution. […] 50,000 cells/well and added to the compound plates. After a short spin (1200 rpm for 1 min), the plates were incubated at 37° C. for 1 hour. The cells were activated by adding 15 μL of IMMUNOCULT™ Human CD3/CD28 T Cell Activator ([…] Technologies) diluted in Opti-MEM. […] The AiphaLISA signal was measured using an EnVision plate reader (PerkinElmer). EC50 values were determined by fitting the data to a standard 4-parameter logistic equation.

The EC50 is the midpoint of the concentration-response curve. Consider `CC1CC(c2cccc(-n3cc(C(F)(F)F)c4cc(CN5CCC[C@H](C)C5)[nH]c4c3=O)c2)(c2nncn2C)C1` (stereo partly drawn) [Example 104, 6-{3-[3-methyl-1-(4-methyl-4H-1,2,4-triazol-3-yl)cyclobutyl]phenyl}-2-{[(3S)-3-methylpiperidin-1-yl]methyl}-4-(trifluoromethyl)-1H,6H,7H-pyrrolo[2,3-c]pyridin-7-one], for which the half-maximal effective concentration (EC50) was less than 100 nM.
The value for `C[C@H]1CCCN(Cc2cc3c(C(F)(F)F)cn(-c4cccc([C@]5(c6nncn6C)C[C@@H](C)C5)c4)c(=O)c3[nH]2)C1` [Example 106, 4-cyclopropyl-2-{[(3S,5S)-3,5-difluoropiperidin-1-yl]methyl}-6-{3-[(1r,3s)-3-methyl-1-(4-methyl-4H-1,2,4-triazol-3-yl)cyclobutyl]phenyl}-1H,6H,7H-pyrrolo[2,3-c]pyridin-7-one] was less than 100 nM.
